Measurements: ChEMBL document CHEMBL2029213, “Multiple determinants for selective inhibition of apicomplexan calcium-dependent protein kinase CDPK1” (J Med Chem, 2012)

Sequences of proteins named here, by UniProt entry; tags and fusion partners are left off.
UniProt P00519, whole entry: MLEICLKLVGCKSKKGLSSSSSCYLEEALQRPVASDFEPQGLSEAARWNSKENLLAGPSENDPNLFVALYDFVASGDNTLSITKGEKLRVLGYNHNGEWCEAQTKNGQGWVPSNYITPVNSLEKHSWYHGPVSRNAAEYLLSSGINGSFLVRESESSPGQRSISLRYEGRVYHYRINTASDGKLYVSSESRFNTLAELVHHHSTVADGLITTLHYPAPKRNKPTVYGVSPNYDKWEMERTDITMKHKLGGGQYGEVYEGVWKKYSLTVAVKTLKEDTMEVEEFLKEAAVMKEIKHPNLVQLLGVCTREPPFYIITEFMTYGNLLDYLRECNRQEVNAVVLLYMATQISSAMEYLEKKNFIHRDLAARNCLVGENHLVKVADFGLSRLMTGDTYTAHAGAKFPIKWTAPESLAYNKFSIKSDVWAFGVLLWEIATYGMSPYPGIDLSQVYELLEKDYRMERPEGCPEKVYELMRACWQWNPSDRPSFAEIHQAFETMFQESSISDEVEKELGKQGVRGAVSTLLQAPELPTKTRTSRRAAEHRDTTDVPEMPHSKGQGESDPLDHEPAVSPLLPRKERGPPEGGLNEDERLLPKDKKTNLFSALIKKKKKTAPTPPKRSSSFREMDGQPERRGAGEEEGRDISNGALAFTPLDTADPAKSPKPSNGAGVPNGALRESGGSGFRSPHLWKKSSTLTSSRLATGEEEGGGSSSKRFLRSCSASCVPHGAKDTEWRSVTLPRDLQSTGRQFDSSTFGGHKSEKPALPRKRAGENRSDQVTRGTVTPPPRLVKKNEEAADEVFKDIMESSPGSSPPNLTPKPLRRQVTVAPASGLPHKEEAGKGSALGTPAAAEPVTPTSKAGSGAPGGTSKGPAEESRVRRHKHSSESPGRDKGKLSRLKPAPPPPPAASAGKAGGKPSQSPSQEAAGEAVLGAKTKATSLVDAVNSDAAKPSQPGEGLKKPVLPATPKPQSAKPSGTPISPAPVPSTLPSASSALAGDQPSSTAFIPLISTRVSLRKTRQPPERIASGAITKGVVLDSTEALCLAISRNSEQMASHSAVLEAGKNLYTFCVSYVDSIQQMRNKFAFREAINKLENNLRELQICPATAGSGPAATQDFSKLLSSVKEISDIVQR

Target: Tyrosine-protein kinase ABL1 (Homo sapiens, UniProt P00519)

## CC(C)n1nc(-c2cc3c(Cl)cccc3[nH]2)c2c(N)ncnc21
  Ki: 280 nM
